The values that follow are results of earlier work, collected in US20150024952A1, “MOLECULAR PROFILING FOR CANCER” (priority 2010, published 2015).

The subject of this data set is HER2 positive breast cancers. To be noted: unselected HER2+ patients.

Turning to trastuzumab, the “HER2 positive breast cancers/patients that respond to treatment” value is on record as “about 30%”.
